Reference: US8604040B2 (priority 2010, dated 2013)

Experiment: log P by HPLC (EEC Directive 79/831 Annex V.A8)
Type: physicochemical
[1] = [c] LC-MS, neutral range, pH 7.8, 0.001 molar aqueous ammonium hydrogencarbonate and acetonitrile

Row | Compound | log P ([b] LC-MS, acidic range, pH 2.7, 0.1% aqueous formic acid and acetonitrile) | log P [1]
1 | C=CCCCCOC(=O)c1cccc(N2CCN(C(=O)Cn3nc(C(F)(F)F)cc3C)CC2)n1 [Example 71] | 3.92 | –
2 | Cc1cc(C(F)(F)F)nn1CC(=O)N1CCN(c2cccc(C(=O)OC3CCCCC3)n2)CC1 [Example 69] | – | 3.98
3 | Cc1cc(C(F)(F)F)nn1CC(=O)N1CCC(c2cccc(C(=O)Nc3cccc4ccccc34)n2)CC1 [Example 29] | – | 3.91
